Values quoted from earlier work, collected in US20090208944A1 (priority 2005, published 2009).

Protein sequences, listed by entry. Tags and fused reporters are not part of them.
UniProt P10635, whole entry: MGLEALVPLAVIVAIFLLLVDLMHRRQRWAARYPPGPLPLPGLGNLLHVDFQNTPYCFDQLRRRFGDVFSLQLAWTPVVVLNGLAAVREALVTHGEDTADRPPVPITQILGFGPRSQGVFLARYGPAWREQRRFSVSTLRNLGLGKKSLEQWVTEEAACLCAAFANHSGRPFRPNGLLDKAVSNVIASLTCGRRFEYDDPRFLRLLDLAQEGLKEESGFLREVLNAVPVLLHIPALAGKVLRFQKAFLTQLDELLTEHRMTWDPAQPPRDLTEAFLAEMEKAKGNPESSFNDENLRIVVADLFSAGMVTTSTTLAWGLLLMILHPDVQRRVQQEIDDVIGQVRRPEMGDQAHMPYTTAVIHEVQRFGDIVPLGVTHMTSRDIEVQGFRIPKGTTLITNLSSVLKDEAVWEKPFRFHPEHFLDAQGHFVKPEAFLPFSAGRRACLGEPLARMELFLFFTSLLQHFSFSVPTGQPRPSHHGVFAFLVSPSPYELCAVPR

Biological target: CYP2D6 enzyme system (Homo sapiens, UniProt P10635)
Conditions: classification from literature

CNCCC(Oc1ccc(C(F)(F)F)cc1)c1ccccc1 (stereo not shown) [fluoxetine]
potency as inhibitor of the CYP2D6 enzyme system: Potent
